Yeast mating assay 2: variants of the scFv Ab-91

The measurements come from Engelhart et al. 2022 (doi:10.1038/s41597-022-01779-4) through the FLAb antibody collection.

Target: peptide PDVDLGDISGINAS, taken from heptad repeat 2 (HR2) of SARS-CoV-2 spike.

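AAYL51 was designed without a model: most single CDR substitutions and a random sample of double and triple ones. The scFvs were displayed on barcoded MATa yeast, the peptide on MATalpha yeast. Pairs that bind mate more often; barcode pairs of the diploids are counted by sequencing. Each replicate has its own calibration line, from reference interactions of the BCL2 family. Mating was done three times.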

Ab-91 is the parent antibody, in scFv form: VL, then the linker GGGGSGGGGSGGGGS, then VH. The light chain is unchanged in all variants.
VL: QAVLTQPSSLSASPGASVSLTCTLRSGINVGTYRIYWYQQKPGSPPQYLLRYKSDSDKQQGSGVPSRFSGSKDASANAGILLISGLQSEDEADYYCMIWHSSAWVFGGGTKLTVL
VH: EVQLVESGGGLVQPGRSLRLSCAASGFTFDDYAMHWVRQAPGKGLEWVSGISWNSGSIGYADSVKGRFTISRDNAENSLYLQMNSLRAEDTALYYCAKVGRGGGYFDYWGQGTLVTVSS

Each variant's VH is given in full. Numbers give log10(Kd / nM), so 0 is 1 nM and 3 is 1 µM. Smaller is tighter. "nd" marks a missing value. The strain was present, yet no cells mated with the target were sequenced in that replicate, which points to weak or no binding. In this assay the parent's reference entry averaged 1.86; its copy inside this library read 0.88.

VH,"replicates, log10 nM"
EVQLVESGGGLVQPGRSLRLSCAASGFTFDDYAMVWVRQAPGKGLEWVSGIYWYSGSIGYADSVKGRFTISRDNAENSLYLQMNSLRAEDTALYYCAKVGRGGGYFDYWGQGTLVTVSS,nd / nd / nd
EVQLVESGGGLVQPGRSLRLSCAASGFTFDDYAHHWVRQAPGKGLEWVSGISWNSGSIGYADSVKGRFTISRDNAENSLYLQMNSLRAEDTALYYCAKMGRGGGYFDHWGQGTLVTVSS,5.55 / nd / nd
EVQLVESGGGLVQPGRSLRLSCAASGFTFDSYAMHWVRQAPGKGLEWVSGISWNSGSIGYADMVKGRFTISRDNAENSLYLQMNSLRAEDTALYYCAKVGRGKGYFDYWGQGTLVTVSS,nd / nd / nd
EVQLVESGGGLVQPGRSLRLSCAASGVTFDDYAKHWVRQAPGKGLEWVSGISWNSGSIGYADSVKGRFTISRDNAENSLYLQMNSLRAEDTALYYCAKVGRGGIYFDYWGQGTLVTVSS,nd / 4.19 / nd
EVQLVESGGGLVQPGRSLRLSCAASGFTFDDYAMHWVRQAPGKGLEWVSGISQNSGSIGSADSVKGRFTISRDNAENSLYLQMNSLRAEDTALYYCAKVGAGGGYFDYWGQGTLVTVSS,3.17 / 4.04 / nd
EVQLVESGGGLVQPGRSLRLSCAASGFTFDDYAMHWVRQAPGKGLEWVSGISWNSGSIGYADSVKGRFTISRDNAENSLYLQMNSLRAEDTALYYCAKVGRGGRTFFYWGQGTLVTVSS,4.92 / nd / nd
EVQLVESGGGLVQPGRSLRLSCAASGFTFDDYAMHWVRQAPGKGLEWVSGINWNSGSIGYADSVKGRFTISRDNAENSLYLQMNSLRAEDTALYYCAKVGIGGGYFSYWGQGTLVTVSS,nd / nd / nd
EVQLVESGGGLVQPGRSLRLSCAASGFTFDDIAMHWVRQAPGKGLEWVSGISWNSGSIGYADSVKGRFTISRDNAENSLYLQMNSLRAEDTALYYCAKVGRKGGYFDYWGQGTLVTVSS,nd / nd / nd
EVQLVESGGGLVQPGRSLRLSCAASGFTFDDYAMHWVRQAPGKGLEWVSGGSWNSGSCGYADSVKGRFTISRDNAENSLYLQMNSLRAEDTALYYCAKVGRGGGYPDYWGQGTLVTVSS,nd / nd / nd
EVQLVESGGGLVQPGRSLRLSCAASGFTFDDYAAHWVRQAPGKGLEWVSGISWNSGSIGRLDSVKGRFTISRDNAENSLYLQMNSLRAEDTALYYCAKVGRGGGYFDYWGQGTLVTVSS,nd / nd / nd
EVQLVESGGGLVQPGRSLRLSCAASGFTFDDYIMHWVRQAPGKGLEWVSGISWNSGSIGYADAVKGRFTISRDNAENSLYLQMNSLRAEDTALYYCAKVGRGGAYFDYWGQGTLVTVSS,nd / 5.17 / nd
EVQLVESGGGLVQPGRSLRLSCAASGFTFDDYAMHWVRQAPGKGLEWVSGISVNSGSWGYADSVKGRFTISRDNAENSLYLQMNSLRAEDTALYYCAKVGRGGGYFDCWGQGTLVTVSS,2.10 / 1.78 / 1.34
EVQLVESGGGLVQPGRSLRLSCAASGFTFDDYAMLWVRQAPGKGLEWVSGISWNSGNIGYADSWKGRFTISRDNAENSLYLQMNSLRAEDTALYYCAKVGRGGGYFDYWGQGTLVTVSS,4.53 / nd / nd
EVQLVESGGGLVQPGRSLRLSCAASGFTFDDYAMWWVRQAPGKGLEWVSGISWNSGSIFYADSVKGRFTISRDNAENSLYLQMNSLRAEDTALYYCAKVGRGGGYCDYWGQGTLVTVSS,nd / 5.87 / nd
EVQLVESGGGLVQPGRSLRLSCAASDFTFDDYAHHWVRQAPGKGLEWVSGISWNSGSIGYADSPKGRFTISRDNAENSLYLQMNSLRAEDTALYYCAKVGRGGGYFDYWGQGTLVTVSS,nd / 4.52 / nd
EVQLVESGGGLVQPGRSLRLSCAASGFTFDDYAMHWVRQAPGKGLEWVSGIQWHSGSIGYADSVWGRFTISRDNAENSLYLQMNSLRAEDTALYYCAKVGRGGGYFDYWGQGTLVTVSS,nd / 5.27 / 4.27
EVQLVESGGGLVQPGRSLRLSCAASGFTFDDYAMHWVRQAPGKGLEWVSGISWNSGSIGKAESVKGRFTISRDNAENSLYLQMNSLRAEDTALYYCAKVGRGGGYFDYWGQGTLVTVSS,nd / nd / nd
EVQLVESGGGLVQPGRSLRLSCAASGFTFSDYAMHWVRQAPGKGLEWVSGISWWSGSIGYADSVKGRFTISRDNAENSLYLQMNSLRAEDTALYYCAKVGRGPGYFDYWGQGTLVTVSS,2.15 / 2.07 / 2.19
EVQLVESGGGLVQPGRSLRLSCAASGFTRYDYAMHWVRQAPGKGLEWVSGISWGSGSIGYADSVKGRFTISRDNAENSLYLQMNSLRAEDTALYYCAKVGRGGGYFDYWGQGTLVTVSS,nd / nd / nd
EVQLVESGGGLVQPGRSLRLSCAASGFTFDDYAMHWVRQAPGKGLEWVSGISWNSGSIGYADSVKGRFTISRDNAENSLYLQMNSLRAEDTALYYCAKYGSGFGYFDYWGQGTLVTVSS,4.45 / 7.15 / 4.88
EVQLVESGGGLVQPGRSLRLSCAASGFTFDDYAMQWVRQAPGKGLEWVSGISWNSGSIGYPDSIKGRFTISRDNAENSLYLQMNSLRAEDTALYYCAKVGRGGGYFDYWGQGTLVTVSS,nd / nd / nd
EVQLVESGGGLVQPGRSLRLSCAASGFTFDDYAMHWVRQAPGKGLEWVSMISWNSGSIGYADSVKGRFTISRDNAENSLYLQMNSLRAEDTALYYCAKVGRGLGYFDYWGQGTLVTVSS,4.91 / 4.71 / nd

Top 3 of the variants detected in all replicates, tightest first:

VH,"replicates, log10 nM"
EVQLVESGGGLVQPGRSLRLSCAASGFTFDDYAMHWVRQAPGKGLEWVSGISVNSGSWGYADSVKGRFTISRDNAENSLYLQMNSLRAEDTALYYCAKVGRGGGYFDCWGQGTLVTVSS,2.10 / 1.78 / 1.34
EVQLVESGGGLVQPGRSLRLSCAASGFTFSDYAMHWVRQAPGKGLEWVSGISWWSGSIGYADSVKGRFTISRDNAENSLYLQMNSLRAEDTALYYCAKVGRGPGYFDYWGQGTLVTVSS,2.15 / 2.07 / 2.19
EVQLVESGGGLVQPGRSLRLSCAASGFTFDDYAMHWVRQAPGKGLEWVSGISWNSGSIGYADSVKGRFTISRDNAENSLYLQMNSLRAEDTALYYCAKYGSGFGYFDYWGQGTLVTVSS,4.45 / 7.15 / 4.88

As a blank, each scFv also met three strains without target: over library AAYL51, 21% of these pairings were detected, typically at 4.54 and seldom below 3.26.